This is a selection; strong and weak results do not stand in their true shares. The source made the active and inactive calls.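 How the source made its calls: active means inhibition above a per-campaign cutoff, the mean inhibition of all tested compounds plus 3 SD (cut at about 27% in these data); inactive means the rest.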
Assay: growth loss in parental Ba/F3 cells – cell-based, murine pro-B, CellTiter-Glo luminescence, counter-screen for JAK2V617F inhibitor project (AID 1486);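 further: 0% = DMSO wells and 100% = JAK Inhibitor I control wells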
Settings: Ba/F3 parental viability, CellTiter-Glo ATP luminescence; at 5.6 µM; stronger effect = higher value
With Cc1nc2ccc3ccccc3c2o1.O=[N+]([O-])c1cc([N+](=O)[O-])c(O)c([N+](=O)[O-])c1 the inhibition was inactive: 3.51%. In the case of CN(C)CCOC(=O)C(O)(c1ccccc1)C1CCCC1 (stereo unspecified), the inhibition is reported as inactive: 0.9%. For COc1ccc(OP(C)(=O)Nc2ccccn2)cc1 (stereo unspecified), the inhibition was inactive: 4.16%. For COc1ccccc1OP(C)(=O)Nc1ccc(Br)cc1 (stereo unspecified), the inhibition was inactive: -1.03%. In the case of CCc1ccc(OP(C)(=O)O)cc1, the inhibition is reported as inactive: 1.23%. In the case of COc1ccccc1OP(C)(=O)Nc1ccc(C)cc1C (stereo unspecified), the inhibition is reported as inactive: 0.67%. In the case of CP(=O)(Nc1ccccn1)Oc1ccccc1 (stereo unspecified), the inhibition is reported as inactive: 4.88%. With O=[N+]([O-])c1cc([N+](=O)[O-])c(Nc2ccccn2)c([N+](=O)[O-])c1 the inhibition was inactive: -4.69%. With Cc1c(NP(C)(=O)Oc2ccc(C(C)C)cc2)c(=O)n(-c2ccccc2)n1C (stereo unspecified) the inhibition was inactive: 2.85%. With CCc1ccc(OP(C)(=O)Nc2cccnc2)cc1 (stereo unspecified) the inhibition was inactive: -1.57%. In the case of CP(=O)(Oc1ccccc1)N1CCOC1=O (stereo unspecified), the inhibition is reported as inactive: -0.79%. With O=C(OCCCN1CCCC1)C(O)(c1ccccc1)C1CCCCC1 (stereo unspecified) the inhibition was inactive: 3.65%. In the case of COc1ccccc1OP(C)(=O)Nc1c(C)n(C)n(-c2ccccc2)c1=O (stereo unspecified), the inhibition is reported as inactive: 3.38%. With COc1ccc(OP(C)(=O)Nc2ccc(Br)cc2)cc1 (stereo unspecified) the inhibition was inactive: 1.81%. In the case of CCN(CC)CC(O)COC(=O)C(O)(c1ccccc1)C1CCCCC1 (stereo unspecified), the inhibition is reported as inactive: 5.15%. In the case of CN(C)C(=O)c1c([N+](=O)[O-])cc([N+](=O)[O-])cc1[N+](=O)[O-], the inhibition is reported as inactive: 0.74%. In the case of CP(=O)(Nc1ccc(Cl)cc1)Oc1ccc(F)cc1 (stereo unspecified), the inhibition is reported as inactive: 4.35%. In the case of CC(C)(C)c1ccc(OP(C)(=O)O)cc1, the inhibition is reported as inactive: 1.67%. In the case of COc1ccccc1OP(C)(=O)Nc1ccccc1Br (stereo unspecified), the inhibition is reported as inactive: 0.32%. With CP(=O)(OC12CC3CC(CC(C3)C1)C2)OC12CC3CC(CC(C3)C1)C2 the inhibition was inactive: 5.75%. With CCOC(=O)c1ccc(NP(C)(=O)Oc2ccc(Cl)cc2)cc1 (stereo unspecified) the inhibition was inactive: 6.32%.

Source: PubChem BioAssay AID1486 (The Scripps Research Institute Molecular Screening Center, 2009)
